ARFGAP1 inhibitor: rat ARFGAP1 inhibition; 360,000 compounds, 0.26% hits; inhibition, % at 16.5 µM; Q62848; AID 651572; Arfgap1-stimulated ARF1 GTP hydrolysis, GDP FP detection;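 active = inhibition above a per-plate limit, mean inhibition of low control wells plus 3 SD, cut at about 25% in these data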;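 also: 0% = DMSO wells with enzyme and 100% = wells lacking Arfgap1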
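Replicates: Single well per compound | Assay system: Truncated rat Arfgap1 GAP domain | Control set: No-Arfgap1 wells (100%) versus DMSO full-reaction wells (0%) | Times: Enzyme reaction 120 min at 25 °C after 20 min preincubation | Reagent: Human ARF1(Δ1-17)-GTP substrate | Measured by: Tracer-displacement fluorescence polarization with EDTA stop, 620/688 nm | Measure: Percent inhibition of Arfgap1-stimulated GTP hydrolysis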
ASAP1 GAP inh: blocks human ASAP1-stimulated Arf1 GTP hydrolysis; inhibition, % at 16.5 µM; 360,000 compounds, 0.19% hits; Q9ULH1; GDP FP detection; in the data active = inhibition above about 25%;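 also: 0% = vehicle with enzyme and substrate and 100% = no enzyme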
MC4R barr agon: human MC4R agonism via beta-arrestin; P32245; U2OS MC4R beta-arrestin complementation, luminescence; percent of melanotan II response, DMSO zero; 360,000 compounds, 0.98% hits; AID 540308; activation, % at 8.9 µM;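 active = activation above a per-plate cutoff, the mean activation of sample wells on that plate plus 3 SD, cut at about 8% in these data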
NRP1-CendR mod: alters CendR peptide binding to human NRP-1; inhibition, % at 25 µM; AID 602438; FAM-RPARPAR peptide binding to NRP-1, fluorescence polarization; O14786; 360,000 compounds, 0.85% hits;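 active = inhibition or corrected inhibition above about 18%, plus a signal ratio from 0.5 to 1.5, limit read from the data, passing the limit was not always enough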
MC4R antag cAMP: antagonists of human melanocortin 4 receptor (MC4R); MC4R-expressing cells, MTII-stimulated cAMP, LANCE TR-FRET; inhibition, % at 6.5 µM; 360,000 compounds, 0.48% hits;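 active = inhibition above its plate's cutoff, the mean of tested wells on that plate plus 3 SD, cut at about 29% in these data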;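 also: 0% = Melanotan II alone and 100% = Melanotan II plus saturating MCL0020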
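Material: U2OS-MC4R stable cell line | Reagent: Melanotan II challenge after compound preincubation | Doses: One concentration, 6.5 µM nominal | Incubation: 30-min compound preincubation, 1-h Melanotan II challenge, 1-h detection, room temperature | Signal: TR-FRET cAMP assay | Replicates: One well per compound, no replicates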
Yeast UUG start: alters start codon recognition fidelity in yeast | S. cerevisiae UUG-firefly luciferase reporter, luminescence/redox ratio | activity score, % at 18.7 µM | hit rate 0.13% among 350,000 | AID 602363;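 active means replicate mean at a twofold rise or more, about +100% in these data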;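 further: firefly luciferase made from a UUG start codon reports start codon fidelity; reporter light over untreated wells divided by growth signal over untreated wells; some hits fall short of that in this replicate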
* marks the source's active call; other numbers are inactive results; nt = no result given. Sampled rows, rich in hits. Any-hit rate of the full collection: about 2.3%.

SMILES	ARFGAP1 inhibitor	ASAP1 GAP inh	MC4R barr agon	NRP1-CendR mod	MC4R antag cAMP	Yeast UUG start
CC(=O)Nc1ccc(-c2ccnc3c2CC(C(=O)Nc2cccnc2)O3)cc1 (centres undefined)	0.8	4.3	0.1	27.3*	-3.6	-9.3
C[C@@H]1CN([C@@H](C)CO)S(=O)(=O)c2ccc(C#Cc3ccc(F)cc3)cc2O[C@@H]1CN(C)C(=O)c1ccccn1	nt	nt	nt	nt	nt	17.3
Cc1cccc(OCCn2c(-c3ccco3)nc3ccccc32)c1	-5.4	1.3	3.2	27.9*	-4.2	-22.0
c1ccc(OCCn2c(-c3ccco3)nc3ccccc32)cc1	-7.0	2.6	-0.5	-35.5	23.0	-24.5
Cc1ccc(NC(=O)CC2S/C(=N/c3nccs3)N(C)C2=O)cc1C (centres undefined)	13.3	-2.7	8.6*	-5.4	-2.5	-2.0
Cc1ccccc1NC(=O)CC1S/C(=N/c2nccs2)N(C)C1=O (centres undefined)	-1.2	1.4	0.8	1.7	11.0	0.6
CCC1(CC)C(=O)NN(c2ccccc2)C1=O	1.1	-6.7	0.8	26.8*	6.3	nt
CCC1(CC)C(=O)N(c2ccccc2)C(=N)N(c2ccccc2)C1=O	3.3	7.2	-1.0	6.8	-2.5	-15.3
COc1ccc(S(=O)(=O)N(C)C[C@H]2Oc3ccc(NC(=O)CCC(F)(F)F)cc3CC(=O)N([C@@H](C)CO)C[C@H]2C)cc1	nt	nt	nt	nt	nt	4.4
O=C(NCC[C@H]1CC[C@@H](NS(=O)(=O)Cc2ccccc2)[C@@H](CO)O1)C1CCOCC1	nt	nt	nt	nt	nt	28.0
NS(=O)(=O)c1ccc(N/N=C/c2cn(-c3ccccc3)nc2-c2cccs2)c([N+](=O)[O-])c1	11.2	-5.7	3.7	-9.0	-3.0	-19.5
NS(=O)(=O)c1ccc(N/N=C/c2cn(-c3ccccc3)nc2-c2cccs2)cc1	13.7	13.1	1.2	29.9*	19.4	-10.0
CC(C)CC#Cc1ccc2c(c1)O[C@@H](CN(C)C(=O)Cc1ccncc1)[C@H](C)CN([C@@H](C)CO)S2(=O)=O	nt	nt	nt	nt	nt	-7.5
Cc1cc(N=Nc2ccc(C)c(N=Nc3cc(C)c(N)cc3N)c2)c(N)cc1N	25.3*	15.9	-1.4	-5.7	16.3	3.5
COc1ccc(N=Nc2cc(OC)c(N)cc2OC)cc1	0.5	-6.3	-3.6	-20.3	-10.5	-5.8
Cc1ncc([N+](=O)[O-])n1CCOC(=O)NC(NCc1ccccc1Cl)C(Cl)(Cl)Cl (centres undefined)	2.8	1.3	-0.2	38.0*	-1.3	-6.2
C=CCOc1ccccc1CN(C(=O)CCl)c1ccc2c(c1)OCO2	7.9	0.9	15.3*	10.8	9.3	-9.3
Cn1ncc2c(O/N=C(\N)c3ccc(C(C)(C)C)cc3)ncnc21	nt	nt	36.5*	-4.1	11.6	22.6
CCOC(=O)c1ccc(Nc2ncnc3c2cnn3C)cc1	1.8	8.8	-1.7	2.0	0.1	-30.1
NC(=O)c1ccccc1N=Cc1cccnc1	-2.9	-1.1	0.8	33.0*	-3.9	nt
Cc1ccc(C=Nc2ccccc2C(N)=O)cc1	-0.2	6.2	-1.4	4.2	-21.9	-0.5
CCOc1cc(-c2ccc(N)c(OCC)c2)ccc1N	-9.9	-2.5	-1.9	43.3*	0.1	0.8
CCOc1ccc(NC(C)=O)cc1N	0.9	1.0	-0.5	4.4	9.6	-10.0
CCOc1ccc(C(=O)NCC(=O)NNC(=O)CN(C)S(=O)(=O)c2ccc(Cl)cc2)cc1OCC	1.1	-2.8	-1.8	-10.6	-2.8	-0.1
COc1cc(C(=O)NCC(=O)NNC(=O)CN(C)S(=O)(=O)c2ccc(Cl)cc2)cc(OC)c1OC	2.0	-6.6	-0.8	27.1*	-3.6	-18.7
Cc1ccc(NC(=O)C(=O)NCCOc2ccc(Cl)cc2)c(C)c1	9.2	-0.9	8.8*	2.0	-2.1	nt
C[C@@H]1CCCCO[C@H](CN(C)Cc2ccccc2)[C@@H](C)CN([C@@H](C)CO)C(=O)c2cc(NS(C)(=O)=O)ccc2O1	nt	nt	nt	nt	nt	2.6
COc1cc(C2CC(=O)Oc3c(C(CCN4CCCC(C)C4)c4ccc(N(C)C)cc4)c(OC)cc(OC)c32)cc(OC)c1OC (centres undefined)	4.0	6.0	-0.5	25.4*	4.5	-5.4
O=C(Cc1ccccc1)N[C@@H]1C=C[C@@H](CC(=O)N2CCOCC2)O[C@H]1CO	nt	nt	nt	nt	nt	-7.1
Cc1cccc(-n2ncc3c2CCCC3NC(=O)CCN2CCCCO2)c1C (centres undefined)	-11.7	15.1	-3.2	23.0*	0.8	-7.6

6 compounds drawn at random from those above:
SMILES	ARFGAP1 inhibitor	ASAP1 GAP inh	MC4R barr agon	NRP1-CendR mod	MC4R antag cAMP	Yeast UUG start
CC(=O)Nc1ccc(-c2ccnc3c2CC(C(=O)Nc2cccnc2)O3)cc1 (centres undefined)	0.8	4.3	0.1	27.3*	-3.6	-9.3
Cc1ccc(NC(=O)CC2S/C(=N/c3nccs3)N(C)C2=O)cc1C (centres undefined)	13.3	-2.7	8.6*	-5.4	-2.5	-2.0
CCOc1ccc(C(=O)NCC(=O)NNC(=O)CN(C)S(=O)(=O)c2ccc(Cl)cc2)cc1OCC	1.1	-2.8	-1.8	-10.6	-2.8	-0.1
NS(=O)(=O)c1ccc(N/N=C/c2cn(-c3ccccc3)nc2-c2cccs2)c([N+](=O)[O-])c1	11.2	-5.7	3.7	-9.0	-3.0	-19.5
COc1cc(C(=O)NCC(=O)NNC(=O)CN(C)S(=O)(=O)c2ccc(Cl)cc2)cc(OC)c1OC	2.0	-6.6	-0.8	27.1*	-3.6	-18.7
Cc1cc(N=Nc2ccc(C)c(N=Nc3cc(C)c(N)cc3N)c2)c(N)cc1N	25.3*	15.9	-1.4	-5.7	16.3	3.5

Remaining list, next part:
SMILES	ARFGAP1 inhibitor	ASAP1 GAP inh	MC4R barr agon	NRP1-CendR mod	MC4R antag cAMP	Yeast UUG start
O=c1c2c(-c3ccccc3)csc2nc2c3ccccc3c(NCCN3CCOCC3)nn12	-0.5	-4.5	9.3*	1.5	-5.1	nt
COc1ccc(S(=O)(=O)N2CCOC2CNC(=O)C(=O)NCc2ccc3c(c2)OCO3)cc1 (centres undefined)	-1.8	-4.6	-1.1	23.4*	4.6	-10.1
C[C@@H]1CCCCO[C@@H](CN(C)S(=O)(=O)c2cccs2)[C@H](C)CN([C@@H](C)CO)C(=O)c2cc(NC(=O)Cc3ccccc3)ccc2O1	nt	nt	nt	nt	nt	-8.8
CC1CCN(Cc2c(C(=O)N/N=C/c3cccc(C(F)(F)F)c3)nnn2-c2nonc2N)CC1	-12.0	1.1	5.3	5.6	12.1	-0.2
CC1CCN(Cc2c(C(=O)N/N=C/c3ccc(C(F)(F)F)cc3)nnn2-c2nonc2N)CC1	-14.3	-0.1	24.2*	-11.9	-8.3	-11.0
CN(C)c1ccc(/C=N/NC(=O)c2nnn(-c3nonc3N)c2CN(C)c2ccccc2)cc1	-1.0	-0.6	8.5*	-1.8	11.3	-20.4
Nc1ccc(O)c2c1C(=O)c1ccccc1C2=O	-21.7	-7.8	-2.7	33.9*	14.7	-10.7
COc1ccc(N)c2c1C(=O)c1ccccc1C2=O	10.8	-0.4	-3.2	2.1	-16.2	-2.2
CNC[C@H]1Oc2ccc(NC(=O)Nc3cccc4ccccc34)cc2CC(=O)N([C@H](C)CO)C[C@H]1C	nt	nt	nt	nt	nt	14.7
COc1ccc([N+](=O)[O-])cc1NC(=O)CCNC(=O)Cn1ccc2ccccc2c1=O	-2.2	1.6	-2.4	29.7*	3.9	nt
CC(=O)N1CCc2cc(S(=O)(=O)N3CCCCC3C)ccc21 (centres undefined)	5.3	15.6	-1.8	34.6*	-1.9	-25.5
N/C(=N\OC(=O)c1ccc(Cl)cc1Cl)c1ccccc1	-14.8	-6.4	-0.7	-2.9	16.0	-64.4
N/C(=N\OC(=O)c1ccc(Cl)cc1Cl)c1ccc(Cl)cc1	-0.2	4.2	5.0	30.5*	-4.2	-9.3
COc1cccc(C(=O)Nc2ccc3c(c2)C(=O)N(C)C[C@H](OC)[C@@H](C)CN(C(=O)C2CCCC2)[C@@H](C)CO3)c1	nt	nt	nt	nt	nt	-3.2
c1ccc(CNC2CC3CCC2C3)cc1 (centres undefined)	7.8	8.5	-2.5	23.6*	-3.9	-21.0

Compound activity as filed in PubChem.
